Experimental data published in the supplement of paper PMC6089552.
What follows is the remainder of the data, with few or none of the hits.

Test system: A673/TR/shEF
Assay: cell viability (LOESS-normalised, relative to median of negative controls) (log2 ratio); higher = more viable cells (less compound effect), active = hit call of the paper (over 3 MAD below the median)
Conditions: library screen: screen1, treatment time: 72 h
Outline: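 A673/TR/shEF Ewing sarcoma cells (1,500 per well, 384-well plates) were grown with or without doxycycline to induce EWS-FLI1 shRNA knockdown, starting 24 h before compounds. Library compounds at two or more concentrations, with DMSO controls, were added for three days. Cell viability was read by CellTiter-Glo luminescence on an Envision reader, then LOESS-corrected per plate, divided by the median of negative controls and log2-transformed. Hits were wells at least three median absolute deviations from the median of all screened wells.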

Measured: cell viability (log2)

COc1c2ccccc2nc2occc12
inactive: 0.25 µM, EWS-FLI1 expression: high (no doxycycline) 0.0257 | 0.25 µM, EWS-FLI1 expression: low (doxycycline-induced shRNA knockdown) 0.165 | 2.5 µM, EWS-FLI1 expression: high (no doxycycline) 0.0579 | 2.5 µM, EWS-FLI1 expression: low (doxycycline-induced shRNA knockdown) 0.167
